# Data published in patent US20030059483A1, “Color stable hypochlorous sanitizer and methods” (priority 1999, published 2003).
# Several values for one entry are separate records, joined by “and”; a condition that tells them apart may be missing. Equal entries are not always repeated.
# Legend:
# [1] = Dye and chlorine stability test, effect of pH; format: physicochemical; settings: initial 100 ppm chlorine
# [2] = Chlorine stability of acid sanitizer solutions; format: physicochemical
# Inoculum = assay: Acid sanitizer microbiology test (sanitizing capacity)
substance,measurement,setting,value
Sodium dichloroisocyanurate dihydrate,Available Chlorine,"[1]; pH buffered at 2, 0.0 hours",10-50 ppm
same,Available Chlorine,"[1]; pH buffered at 2, 175 hours",0 ppm
same,Available Chlorine,"[1]; pH buffered at 4, 2.5 hours",80-100 ppm
same,Available Chlorine,"[1]; pH buffered at 4, 175 hours",0 ppm
same,Available Chlorine,"[1]; pH buffered at 6, 5.0 hours",100 ppm
same,Available Chlorine,"[1]; pH buffered at 6, 175 hours",80-100 ppm
same,Available Chlorine,"[1]; pH buffered at 8, 0.25 hours",100 ppm
same,Available Chlorine,"[1]; pH buffered at 8, 175 hours",50-100 ppm
same,Available Chlorine,"[1]; pH buffered at 10, 0.0 hours",100 ppm
same,Available Chlorine,"[1]; pH buffered at 10, 175 hours",10 ppm
same,Available Chlorine,"[1]; pH buffered at 12, 0.0 hours",100 ppm
same,Available Chlorine,"[1]; pH buffered at 12, 175 hours",10 ppm
same,Chlorine (ppm) Conc. 0 Time,"[2]; chlorine 10 ppm, pH 4.55",9.9 ppm
same,Chlorine (ppm) Conc. 4 Hours,"[2]; chlorine 10 ppm, pH 4.55",8.5 ppm
same,Chlorine (ppm) Conc. 24 Hours,"[2]; chlorine 10 ppm, pH 4.55",5.67 ppm
same,Chlorine (ppm) Conc. 0 Time,"[2]; chlorine 30 ppm, pH 4.78",26.9 ppm
same,Chlorine (ppm) Conc. 4 Hours,"[2]; chlorine 30 ppm, pH 4.78",22.69 ppm
same,Chlorine (ppm) Conc. 24 Hours,"[2]; chlorine 30 ppm, pH 4.78",19.85 ppm
same,% Reduction,"Inoculum; chlorine 10 ppm, pH 4.55, listed as CDB Chlorinated Isocyanurate, dihydrate",99.9999% and 100.0000%
same,% Reduction,"Inoculum; chlorine 30 ppm, pH 4.78",100.0000%
Chlorinated trisodium phosphate,% Reduction,"Inoculum; chlorine 12 ppm, pH 5.13",100.0000%
